Experimental data as given in ChEMBL document CHEMBL1135758, “Toward a pharmacophore for drugs inducing the long QT syndrome: insights from a CoMFA study of HERG K(+) channel blockers” (J Med Chem, 2002).

Protein sequences, listed by entry. Tags and fused reporters are not part of them. Lines headed by an entry give the natural chain unless they say otherwise; changes in a name come on top.
UniProt Q12809: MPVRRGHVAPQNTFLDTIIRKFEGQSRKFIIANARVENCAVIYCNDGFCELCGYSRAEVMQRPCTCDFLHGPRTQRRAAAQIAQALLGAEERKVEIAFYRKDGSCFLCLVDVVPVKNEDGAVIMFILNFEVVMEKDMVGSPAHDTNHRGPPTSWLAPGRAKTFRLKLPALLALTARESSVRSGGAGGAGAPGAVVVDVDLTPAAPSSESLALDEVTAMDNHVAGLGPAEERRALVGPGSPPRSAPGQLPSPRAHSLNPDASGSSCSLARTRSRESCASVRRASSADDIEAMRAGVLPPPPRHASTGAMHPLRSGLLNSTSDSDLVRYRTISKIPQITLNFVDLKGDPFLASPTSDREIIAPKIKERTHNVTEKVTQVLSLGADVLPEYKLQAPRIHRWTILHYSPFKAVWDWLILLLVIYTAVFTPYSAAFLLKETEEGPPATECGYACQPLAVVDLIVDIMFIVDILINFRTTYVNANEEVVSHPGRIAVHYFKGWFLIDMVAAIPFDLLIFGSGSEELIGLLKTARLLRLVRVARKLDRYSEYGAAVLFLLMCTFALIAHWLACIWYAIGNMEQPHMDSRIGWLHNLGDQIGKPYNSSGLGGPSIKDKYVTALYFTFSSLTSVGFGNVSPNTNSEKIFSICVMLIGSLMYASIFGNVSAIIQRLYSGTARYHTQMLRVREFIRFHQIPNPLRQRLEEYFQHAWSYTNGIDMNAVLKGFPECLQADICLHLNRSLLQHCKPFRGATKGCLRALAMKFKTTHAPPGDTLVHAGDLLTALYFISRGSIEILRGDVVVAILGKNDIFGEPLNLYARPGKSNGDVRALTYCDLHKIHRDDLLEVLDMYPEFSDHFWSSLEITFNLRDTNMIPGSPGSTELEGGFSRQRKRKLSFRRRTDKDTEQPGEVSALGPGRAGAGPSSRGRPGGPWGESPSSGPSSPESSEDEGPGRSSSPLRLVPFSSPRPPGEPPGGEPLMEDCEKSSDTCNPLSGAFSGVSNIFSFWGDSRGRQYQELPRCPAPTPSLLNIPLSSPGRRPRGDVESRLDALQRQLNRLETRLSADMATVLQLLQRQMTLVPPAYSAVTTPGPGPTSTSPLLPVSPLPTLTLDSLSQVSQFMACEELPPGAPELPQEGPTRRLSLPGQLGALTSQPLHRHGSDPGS

Assays:
[1] = target: T1, Voltage-gated inwardly rectifying potassium channel KCNH2 (Homo sapiens, UniProt Q12809)
[2] = target: T1, Voltage-gated inwardly rectifying potassium channel KCNH2; test: K+ channel blocking activity in COS-7 African green monkey kidney derived cells expressing HERG Kv11.1; format: functional, cell-based

O=C1Cc2cc(CCN3CCN(c4nsc5ccccc45)CC3)c(Cl)cc2N1 [ZIPRASIDONE] was tested, and the IC50 [1] was 152 nM.

In the case of C1CCC(C(CC2CCCCN2)C2CCCCC2)CC1 (stereo not drawn) [PERHEXILINE], the IC50 [1] is reported as 7800 nM.

For CC(C)COCC(CN(Cc1ccccc1)c1ccccc1)N1CCCC1 (stereo not drawn) [BEPRIDIL], the IC50 [2] was 550 nM.
